# In patent publication US4906661A, “Esters of aryloxypropanolamine derivatives” (E. I. Du Pont de Nemours and Company, priority 1989, dated 1990):
# Sequences of proteins named here, by UniProt entry; tags and fusion partners are left off. Residues count along the entry.
# UniProt H0W3H1, 1-470: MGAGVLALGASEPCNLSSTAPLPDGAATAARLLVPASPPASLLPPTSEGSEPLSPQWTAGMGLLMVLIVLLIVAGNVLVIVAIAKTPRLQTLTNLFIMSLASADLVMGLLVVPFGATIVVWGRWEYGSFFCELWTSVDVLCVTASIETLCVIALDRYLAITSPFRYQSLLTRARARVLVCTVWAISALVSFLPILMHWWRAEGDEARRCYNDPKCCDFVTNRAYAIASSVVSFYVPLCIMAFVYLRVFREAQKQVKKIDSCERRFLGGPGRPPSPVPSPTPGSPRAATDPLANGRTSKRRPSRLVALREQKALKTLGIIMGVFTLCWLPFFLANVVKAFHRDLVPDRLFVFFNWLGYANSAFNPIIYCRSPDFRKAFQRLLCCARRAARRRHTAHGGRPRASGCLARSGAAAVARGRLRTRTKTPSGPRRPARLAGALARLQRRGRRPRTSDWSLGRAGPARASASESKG
# Structures can show the parent of a compound that is named as a salt.
# Target: β1 receptors, guinea pig right atria (Cavia porcellus, UniProt H0W3H1)
# Test: cell-based
# Settings: read-out: PA2 Rt. Atria (converted)
# Procedure: Each tissue was suspended between a fixed glass rod and a Statham Universal Transducer connected to a Beckman recorder. Atria were allowed to beat spontaneously under a loading tension of approximately 0.5 gm. Intrinsic depressant or stimulant activity was determined for each compound by progressively increasing concentrations in the tissue baths at 60-minute intervals. Tissues were not washed between increments. The maximum concentration showing little or no cardiodepressant activity was chosen for blockade experiments. Changes in rate in response to isoproterenol, a standard β-receptor agonist, were measured in the absence and presence of test compounds. Spiral strips of guinea pig trachea were suspended under 5 gm resting tension and incubated with phentolamine, tropolone and cocaine. Active tension was generated by addition of carbachol (3.0×10^-7 M) and decreases in tension in response to isoproterenol were quantitated. Cumulative concentration-response curves were produced with isoproterenol both before and after 60-minute incubation of test compounds with atria and trachea. […] The blocking potency of test compounds was estimated by computing pA2 values (-log KB) by the method of Furchgott, the Pharmacological Differentiation of Adrenergic Receptors, Ann. […] The degree of cardioselectivity was estimated from the ratio, KB trachea/KB atria (10^(pA2 atria-pA2 trachea)). […]
compound,measurement,value
"COC(=O)c1ccccc1OCC(O)CNC(C)(C)CNS(=O)(=O)c1ccccc1 (stereo not shown) [VIII, Methyl 2-[2-Hydroxy-3-[N-[1,1-dimethyl-2-(phenylsulfonylamino)ethyl]amino]proxy]benzoate Oxalate]",Kb,2 nM
